Values of other authors as cited in patent publication US20230128372A1, “AZD1656 FOR USE IN THE TREATMENT OF PNEUMONITIS AND/OR MYCORDITIS CAUSED BY A CORONAVIRUS” (EXCALIBUR MEDICINES LIMITED, priority 2020, published 2023).

Amino acid sequences for entries named in this document (tags omitted). A change or cut given only in a name is not applied to a line headed by its entry.
UniProt P19367, whole entry, species assumed: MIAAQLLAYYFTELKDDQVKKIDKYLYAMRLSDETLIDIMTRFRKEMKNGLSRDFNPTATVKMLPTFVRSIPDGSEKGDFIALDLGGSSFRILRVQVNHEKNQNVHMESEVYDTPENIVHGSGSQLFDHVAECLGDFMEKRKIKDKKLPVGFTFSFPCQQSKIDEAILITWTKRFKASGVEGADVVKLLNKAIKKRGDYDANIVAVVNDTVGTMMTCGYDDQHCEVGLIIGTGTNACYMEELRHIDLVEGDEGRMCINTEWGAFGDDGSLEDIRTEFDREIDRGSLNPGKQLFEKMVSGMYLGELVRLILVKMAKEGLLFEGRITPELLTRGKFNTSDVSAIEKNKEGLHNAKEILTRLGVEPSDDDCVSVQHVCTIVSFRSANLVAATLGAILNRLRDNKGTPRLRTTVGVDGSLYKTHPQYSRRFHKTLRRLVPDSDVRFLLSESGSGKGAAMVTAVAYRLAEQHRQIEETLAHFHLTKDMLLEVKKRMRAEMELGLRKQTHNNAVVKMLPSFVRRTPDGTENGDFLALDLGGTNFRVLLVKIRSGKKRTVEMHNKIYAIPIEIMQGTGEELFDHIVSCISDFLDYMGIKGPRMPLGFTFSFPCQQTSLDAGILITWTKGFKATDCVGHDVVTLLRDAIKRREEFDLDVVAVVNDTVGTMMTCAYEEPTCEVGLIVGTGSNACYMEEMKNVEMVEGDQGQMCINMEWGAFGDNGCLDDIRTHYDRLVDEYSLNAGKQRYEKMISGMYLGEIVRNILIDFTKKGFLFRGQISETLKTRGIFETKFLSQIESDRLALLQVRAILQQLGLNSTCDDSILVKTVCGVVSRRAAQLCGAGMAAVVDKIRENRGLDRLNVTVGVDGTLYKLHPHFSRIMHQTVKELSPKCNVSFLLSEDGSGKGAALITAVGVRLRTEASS
UniProt P52789: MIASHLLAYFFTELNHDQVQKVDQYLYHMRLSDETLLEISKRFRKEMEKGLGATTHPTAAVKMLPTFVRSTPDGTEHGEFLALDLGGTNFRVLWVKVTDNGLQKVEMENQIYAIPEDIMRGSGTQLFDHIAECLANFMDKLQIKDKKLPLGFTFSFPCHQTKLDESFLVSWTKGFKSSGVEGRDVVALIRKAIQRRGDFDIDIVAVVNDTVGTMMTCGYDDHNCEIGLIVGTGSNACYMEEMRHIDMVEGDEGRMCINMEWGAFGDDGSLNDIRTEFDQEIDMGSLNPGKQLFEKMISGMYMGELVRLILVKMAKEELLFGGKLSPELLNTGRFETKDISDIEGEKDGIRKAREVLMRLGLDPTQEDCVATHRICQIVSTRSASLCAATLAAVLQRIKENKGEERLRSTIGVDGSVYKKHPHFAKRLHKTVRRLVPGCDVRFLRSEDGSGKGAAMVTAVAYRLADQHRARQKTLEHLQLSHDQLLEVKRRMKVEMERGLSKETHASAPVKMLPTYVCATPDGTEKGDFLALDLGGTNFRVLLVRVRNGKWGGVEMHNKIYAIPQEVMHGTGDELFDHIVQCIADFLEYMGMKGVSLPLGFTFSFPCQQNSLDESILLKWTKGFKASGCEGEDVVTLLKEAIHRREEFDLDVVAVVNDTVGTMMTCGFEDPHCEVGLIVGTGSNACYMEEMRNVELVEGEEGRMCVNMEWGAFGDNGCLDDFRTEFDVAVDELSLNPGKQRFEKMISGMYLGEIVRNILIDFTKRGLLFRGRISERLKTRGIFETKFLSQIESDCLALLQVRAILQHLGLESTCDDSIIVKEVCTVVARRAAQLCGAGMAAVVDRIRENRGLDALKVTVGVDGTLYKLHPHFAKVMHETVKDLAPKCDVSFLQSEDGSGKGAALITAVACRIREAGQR

Tests used:
hexokinase 1 = hexokinase 1 (Homo sapiens, UniProt P19367); conditions: glucokinase versus hexokinase 1; cited from earlier work
hexokinase 2 = hexokinase 2 (Homo sapiens, UniProt P52789); conditions: glucokinase versus hexokinase 2; cited from earlier work
[1] = glucokinase versus pharmacology screening panel; cited from earlier work
[2] = tested on: healthy volunteers and diabetic patients; conditions: single doses up to 180 mg, multiple doses to 150 mg BID for 8 days in healthy volunteers; 200 mg daily up to 6 months in diabetic patients; cited from earlier work

## COC[C@H](C)Oc1cc(Oc2cnc(C(=O)N3CCC3)cn2)cc(C(=O)Nc2cnc(C)cn2)c1 [AZD1656, 3-{[5-(Azetidin-1-ylcarbonyl)pyrazin-2-yl]oxy}-5-{[(1S)-1-methyl-2-(methyloxy)ethyl]oxy}-N-(5-methylpyrazin-2-yl)benzamide]
Hexokinase 1
  selectivity versus hexokinase 1: > 100 fold
Hexokinase 2
  selectivity versus hexokinase 2: > 100 fold
[1]
  selectivity versus pharmacology screening panel: > 100 fold
[2]
  clinical effects (safety): no significant clinical effects other than glucose lowering were noted
